The values that follow are results of earlier work, collected in patent US20170037086A1, “PEPTIDOMIMETIC MACROCYCLES WITH PTH ACTIVITY” (AILERON THERAPEUTICS, INC., priority 2014, published 2017).

Protein sequences, listed by entry. Tags and fused reporters are not part of them. Residues count along the entry.
UniProt P49190, 25-550: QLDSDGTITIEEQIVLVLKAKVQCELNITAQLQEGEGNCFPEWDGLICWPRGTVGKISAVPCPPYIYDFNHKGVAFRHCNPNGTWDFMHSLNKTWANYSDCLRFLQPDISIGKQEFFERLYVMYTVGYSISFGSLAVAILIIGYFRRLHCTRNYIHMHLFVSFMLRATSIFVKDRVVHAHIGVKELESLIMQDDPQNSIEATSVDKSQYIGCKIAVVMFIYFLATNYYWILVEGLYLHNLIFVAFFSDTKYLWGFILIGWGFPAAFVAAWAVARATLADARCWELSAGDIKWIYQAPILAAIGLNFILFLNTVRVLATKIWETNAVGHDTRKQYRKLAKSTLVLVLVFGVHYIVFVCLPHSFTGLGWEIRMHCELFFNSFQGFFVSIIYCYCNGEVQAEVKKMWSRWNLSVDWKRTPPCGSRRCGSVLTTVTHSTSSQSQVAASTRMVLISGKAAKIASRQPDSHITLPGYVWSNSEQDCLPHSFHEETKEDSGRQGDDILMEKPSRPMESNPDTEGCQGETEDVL

The data set concerns the target T1, PTH receptor type 2 (Homo sapiens, UniProt P49190).
T1 construct: expressed in transfected cells; host or cells: CHO-k1/PTH2R/Gα15
The settings on record: reference value, cited from earlier work.

For orientation: IC50 means the concentration that inhibits the measured activity by half. Consider PTHrP-7-34, for which the IC50 (control antagonist) is 1000 nM. A word on the EC50: it is the concentration giving half of the maximal effect. With TIP-39, the EC50 (reference agonist) was 2 nM.
